Assay results: patent US7312219B2, “Heteroaromatic inhibitors of fructose 1,6-bisphosphatase” (Metabasis Therapeutics, Inc., priority 1998, dated 2007)

Biological target: T1, human liver FBPase (Homo sapiens, UniProt P09467)
T1 construct: made in house; host or cells: E. coli BL21
T1 sequence (P09467 2-338 limits assumed): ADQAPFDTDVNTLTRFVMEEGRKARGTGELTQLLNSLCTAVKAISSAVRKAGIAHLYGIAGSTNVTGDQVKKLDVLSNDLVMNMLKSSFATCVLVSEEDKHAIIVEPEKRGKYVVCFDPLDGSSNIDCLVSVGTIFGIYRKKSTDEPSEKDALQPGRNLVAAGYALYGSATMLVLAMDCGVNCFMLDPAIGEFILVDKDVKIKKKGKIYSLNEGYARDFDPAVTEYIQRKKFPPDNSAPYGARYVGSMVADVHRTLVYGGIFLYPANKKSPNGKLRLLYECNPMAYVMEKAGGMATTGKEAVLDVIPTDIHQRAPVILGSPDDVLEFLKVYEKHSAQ
Experiment: Inhibition of Human Liver FBPase
Format: biochemical
Settings: selectivity table; read-out: FBPase (inh.)

For `CC(C)Cc1oc(N)nc1-c1ccc(P(=O)(O)O)o1` [Compound 10.1, 2-amino-5-isobutyl-4-[2-(5-phosphono)furanyl]oxazole], the IC50 was 100 nM.
